Experimental data reported in ChEMBL document CHEMBL1135544, “Design, synthesis, and biological activity of hybrid compounds between uramustine and DNA minor groove binder distamycin A” (J Med Chem, 2002).

Tested on: K562
Assay: In vitro antitumor activity against human chronic myeloid leukemia K562 cell line

Row | Compound | IC50 [µM]
1 | O=C(O)Cn1cc(N(CCCl)CCCl)c(=O)[nH]c1=O | 33.5
2 | O=C(O)CCn1cc(N(CCCl)CCCl)c(=O)[nH]c1=O | > 100
